The values that follow come from ChEMBL document CHEMBL1151014, “Tetrazole-substituted ureas as inhibitors of acyl-CoA:cholesterol O-acyltransferase (ACAT). A novel preparation of ureas from weakly nucleophilic amines” (Bioorg Med Chem Lett, 1996).

In the assay the target is T1, Sterol O-acyltransferase 1 (Rattus norvegicus, UniProt O70536).
T1 sequence (O70536 whole entry): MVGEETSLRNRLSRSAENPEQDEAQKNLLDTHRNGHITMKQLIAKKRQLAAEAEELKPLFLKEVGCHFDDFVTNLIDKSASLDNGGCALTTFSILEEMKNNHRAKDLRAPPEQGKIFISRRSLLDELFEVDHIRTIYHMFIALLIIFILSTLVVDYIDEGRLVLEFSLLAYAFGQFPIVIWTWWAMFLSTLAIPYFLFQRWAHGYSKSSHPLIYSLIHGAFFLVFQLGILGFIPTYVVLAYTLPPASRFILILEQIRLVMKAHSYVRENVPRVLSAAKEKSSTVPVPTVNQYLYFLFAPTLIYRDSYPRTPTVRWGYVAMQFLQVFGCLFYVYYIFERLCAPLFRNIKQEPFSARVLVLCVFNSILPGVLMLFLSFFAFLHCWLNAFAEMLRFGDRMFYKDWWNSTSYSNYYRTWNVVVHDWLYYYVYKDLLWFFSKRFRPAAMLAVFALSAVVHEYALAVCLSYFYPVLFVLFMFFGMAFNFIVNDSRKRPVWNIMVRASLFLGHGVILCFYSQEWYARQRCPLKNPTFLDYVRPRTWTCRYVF
Nature of the assay: Liver Acyl coenzyme A:cholesterol acyltransferase inhibitory activity was determined in vitro using [1-14C]oleolyl-CoA and microsomes isolated from the livers of cholesterol fed rats. Set-up: species or system Microsome.

`CCCCCCCCCCCCn1nnc(N(C(=O)Nc2c(C(C)C)cccc2C(C)C)c2ccccc2)n1` gave an IC50 of 47 nM.
